Experimental data as given in the kinase profiling compilation of Christmann-Franck et al. (2016).

Sequences of proteins named here, by UniProt entry; tags and fusion partners are left off. A change or cut given only in a name is not applied to a line headed by its entry.
UniProt P19784, whole entry, looked up: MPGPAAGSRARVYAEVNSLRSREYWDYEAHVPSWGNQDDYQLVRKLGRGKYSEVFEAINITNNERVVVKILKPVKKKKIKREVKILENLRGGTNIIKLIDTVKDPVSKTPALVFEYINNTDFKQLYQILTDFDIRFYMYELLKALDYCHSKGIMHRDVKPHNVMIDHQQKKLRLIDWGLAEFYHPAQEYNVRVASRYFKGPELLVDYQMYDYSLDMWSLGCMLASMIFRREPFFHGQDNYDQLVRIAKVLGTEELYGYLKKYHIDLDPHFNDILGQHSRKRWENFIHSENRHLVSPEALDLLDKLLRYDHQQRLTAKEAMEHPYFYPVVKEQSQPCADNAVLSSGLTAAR
UniProt P32298, whole entry, looked up: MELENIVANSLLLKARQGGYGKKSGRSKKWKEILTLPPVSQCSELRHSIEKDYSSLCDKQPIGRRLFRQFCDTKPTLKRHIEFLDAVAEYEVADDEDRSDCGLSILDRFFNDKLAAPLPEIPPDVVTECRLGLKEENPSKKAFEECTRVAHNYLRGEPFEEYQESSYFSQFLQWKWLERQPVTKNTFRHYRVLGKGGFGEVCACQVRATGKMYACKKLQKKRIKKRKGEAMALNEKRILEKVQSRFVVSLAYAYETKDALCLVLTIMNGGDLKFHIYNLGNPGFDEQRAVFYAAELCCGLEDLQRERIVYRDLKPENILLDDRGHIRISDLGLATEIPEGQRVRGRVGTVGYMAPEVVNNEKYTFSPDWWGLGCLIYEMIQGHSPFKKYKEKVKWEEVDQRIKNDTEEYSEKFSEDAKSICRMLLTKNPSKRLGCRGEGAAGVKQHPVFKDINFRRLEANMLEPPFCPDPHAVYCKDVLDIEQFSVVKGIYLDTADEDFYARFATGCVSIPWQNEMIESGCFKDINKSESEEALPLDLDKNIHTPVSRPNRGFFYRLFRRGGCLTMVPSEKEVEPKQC
UniProt P34947, whole entry, looked up: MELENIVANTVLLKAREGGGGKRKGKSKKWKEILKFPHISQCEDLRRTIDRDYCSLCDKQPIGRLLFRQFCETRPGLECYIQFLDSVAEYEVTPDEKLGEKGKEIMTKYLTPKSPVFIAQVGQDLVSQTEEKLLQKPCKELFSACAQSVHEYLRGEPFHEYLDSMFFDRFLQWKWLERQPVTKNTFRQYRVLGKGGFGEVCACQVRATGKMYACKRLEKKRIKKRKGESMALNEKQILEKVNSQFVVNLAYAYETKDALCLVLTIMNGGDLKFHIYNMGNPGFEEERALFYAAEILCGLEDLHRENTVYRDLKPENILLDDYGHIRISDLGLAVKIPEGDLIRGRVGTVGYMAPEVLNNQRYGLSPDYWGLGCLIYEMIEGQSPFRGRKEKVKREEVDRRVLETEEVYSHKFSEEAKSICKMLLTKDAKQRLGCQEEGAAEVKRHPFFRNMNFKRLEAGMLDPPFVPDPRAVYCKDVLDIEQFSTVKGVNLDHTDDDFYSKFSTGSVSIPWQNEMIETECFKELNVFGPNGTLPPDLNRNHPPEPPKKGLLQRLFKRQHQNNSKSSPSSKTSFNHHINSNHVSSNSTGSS
UniProt Q14164: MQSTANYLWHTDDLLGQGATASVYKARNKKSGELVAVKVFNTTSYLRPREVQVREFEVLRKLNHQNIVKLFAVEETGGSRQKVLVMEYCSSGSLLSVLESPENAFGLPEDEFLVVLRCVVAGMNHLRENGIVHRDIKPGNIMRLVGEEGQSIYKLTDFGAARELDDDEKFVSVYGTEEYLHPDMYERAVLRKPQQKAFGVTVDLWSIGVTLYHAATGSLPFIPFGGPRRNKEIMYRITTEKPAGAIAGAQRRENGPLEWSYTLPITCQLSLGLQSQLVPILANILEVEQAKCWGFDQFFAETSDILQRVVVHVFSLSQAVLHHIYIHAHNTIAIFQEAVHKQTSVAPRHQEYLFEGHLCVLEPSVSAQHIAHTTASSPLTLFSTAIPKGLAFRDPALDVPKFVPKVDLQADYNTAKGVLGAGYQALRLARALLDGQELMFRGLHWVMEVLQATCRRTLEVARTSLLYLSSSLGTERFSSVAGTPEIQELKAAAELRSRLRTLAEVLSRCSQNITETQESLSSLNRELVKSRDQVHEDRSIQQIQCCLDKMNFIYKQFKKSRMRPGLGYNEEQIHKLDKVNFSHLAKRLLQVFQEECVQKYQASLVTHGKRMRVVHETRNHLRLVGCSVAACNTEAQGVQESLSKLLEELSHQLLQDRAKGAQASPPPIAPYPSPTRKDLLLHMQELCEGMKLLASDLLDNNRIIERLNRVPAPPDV
UniProt P10721, whole entry, looked up: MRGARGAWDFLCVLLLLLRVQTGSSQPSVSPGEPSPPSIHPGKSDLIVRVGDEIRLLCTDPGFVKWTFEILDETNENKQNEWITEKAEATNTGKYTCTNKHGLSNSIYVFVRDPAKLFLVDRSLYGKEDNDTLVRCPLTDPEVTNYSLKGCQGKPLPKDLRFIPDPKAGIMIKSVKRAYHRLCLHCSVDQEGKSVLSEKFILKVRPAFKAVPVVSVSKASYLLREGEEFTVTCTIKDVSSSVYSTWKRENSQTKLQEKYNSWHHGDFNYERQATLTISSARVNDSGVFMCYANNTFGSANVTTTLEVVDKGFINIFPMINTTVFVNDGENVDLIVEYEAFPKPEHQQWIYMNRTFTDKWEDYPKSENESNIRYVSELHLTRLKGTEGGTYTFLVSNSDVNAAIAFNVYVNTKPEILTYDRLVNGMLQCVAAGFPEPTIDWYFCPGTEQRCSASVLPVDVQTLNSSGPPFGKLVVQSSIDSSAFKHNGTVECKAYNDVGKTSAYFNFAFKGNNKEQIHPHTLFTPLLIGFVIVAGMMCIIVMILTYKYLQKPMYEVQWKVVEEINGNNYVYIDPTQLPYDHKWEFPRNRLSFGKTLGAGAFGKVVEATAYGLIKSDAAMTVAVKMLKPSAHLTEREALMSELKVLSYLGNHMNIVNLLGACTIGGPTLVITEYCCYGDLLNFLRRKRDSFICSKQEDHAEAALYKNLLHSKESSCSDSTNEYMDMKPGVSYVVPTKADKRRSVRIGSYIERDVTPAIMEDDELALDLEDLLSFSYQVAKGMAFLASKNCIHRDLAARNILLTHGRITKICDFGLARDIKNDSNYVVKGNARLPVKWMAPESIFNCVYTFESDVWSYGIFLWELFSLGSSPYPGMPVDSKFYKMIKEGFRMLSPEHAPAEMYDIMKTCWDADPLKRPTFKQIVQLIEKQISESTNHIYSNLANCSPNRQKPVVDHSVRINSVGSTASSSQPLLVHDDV
UniProt Q8IW41: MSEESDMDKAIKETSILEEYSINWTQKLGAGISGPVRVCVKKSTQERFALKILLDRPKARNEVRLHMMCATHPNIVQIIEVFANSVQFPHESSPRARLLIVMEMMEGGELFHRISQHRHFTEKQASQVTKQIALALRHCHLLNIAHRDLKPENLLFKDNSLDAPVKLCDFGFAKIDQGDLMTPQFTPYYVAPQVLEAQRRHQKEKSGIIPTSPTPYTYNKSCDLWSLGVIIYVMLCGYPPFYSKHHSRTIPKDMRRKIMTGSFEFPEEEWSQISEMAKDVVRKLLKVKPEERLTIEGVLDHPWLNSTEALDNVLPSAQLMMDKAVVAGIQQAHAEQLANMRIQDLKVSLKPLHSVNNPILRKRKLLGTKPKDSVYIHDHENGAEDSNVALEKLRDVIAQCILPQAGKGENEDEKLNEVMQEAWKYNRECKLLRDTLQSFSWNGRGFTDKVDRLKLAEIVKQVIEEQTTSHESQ
UniProt Q96KB5: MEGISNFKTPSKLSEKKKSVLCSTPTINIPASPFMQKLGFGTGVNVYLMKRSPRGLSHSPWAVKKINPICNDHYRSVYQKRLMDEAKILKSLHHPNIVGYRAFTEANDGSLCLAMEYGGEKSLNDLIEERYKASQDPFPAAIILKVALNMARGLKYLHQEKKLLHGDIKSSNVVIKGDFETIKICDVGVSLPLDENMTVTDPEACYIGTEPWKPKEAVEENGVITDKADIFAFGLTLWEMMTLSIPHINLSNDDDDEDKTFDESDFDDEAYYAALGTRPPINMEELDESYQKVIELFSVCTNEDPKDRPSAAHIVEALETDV
UniProt Q16512: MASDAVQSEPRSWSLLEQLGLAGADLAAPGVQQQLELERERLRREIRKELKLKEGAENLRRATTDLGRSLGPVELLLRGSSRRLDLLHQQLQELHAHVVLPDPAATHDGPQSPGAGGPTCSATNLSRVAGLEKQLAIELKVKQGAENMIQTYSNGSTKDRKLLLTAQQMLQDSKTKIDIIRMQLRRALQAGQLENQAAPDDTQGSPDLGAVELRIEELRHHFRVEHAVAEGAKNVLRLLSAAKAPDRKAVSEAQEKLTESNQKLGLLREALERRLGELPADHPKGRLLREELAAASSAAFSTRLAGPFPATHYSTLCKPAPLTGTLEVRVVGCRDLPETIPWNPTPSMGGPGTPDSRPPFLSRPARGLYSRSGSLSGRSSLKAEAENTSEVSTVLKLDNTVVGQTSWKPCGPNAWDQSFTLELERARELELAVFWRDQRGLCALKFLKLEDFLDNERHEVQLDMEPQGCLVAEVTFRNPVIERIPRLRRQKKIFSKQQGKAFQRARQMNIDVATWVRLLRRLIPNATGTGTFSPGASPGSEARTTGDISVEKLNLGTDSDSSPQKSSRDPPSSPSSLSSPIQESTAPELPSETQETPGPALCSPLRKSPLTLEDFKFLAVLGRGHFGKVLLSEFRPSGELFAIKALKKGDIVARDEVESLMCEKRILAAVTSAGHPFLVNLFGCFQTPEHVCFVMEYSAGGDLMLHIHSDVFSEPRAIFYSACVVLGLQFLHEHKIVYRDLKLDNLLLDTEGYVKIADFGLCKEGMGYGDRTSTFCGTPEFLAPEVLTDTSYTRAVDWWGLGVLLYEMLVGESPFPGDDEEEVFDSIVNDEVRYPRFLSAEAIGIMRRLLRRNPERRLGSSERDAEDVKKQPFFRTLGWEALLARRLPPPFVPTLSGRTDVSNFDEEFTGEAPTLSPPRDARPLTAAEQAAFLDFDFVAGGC
UniProt Q13188: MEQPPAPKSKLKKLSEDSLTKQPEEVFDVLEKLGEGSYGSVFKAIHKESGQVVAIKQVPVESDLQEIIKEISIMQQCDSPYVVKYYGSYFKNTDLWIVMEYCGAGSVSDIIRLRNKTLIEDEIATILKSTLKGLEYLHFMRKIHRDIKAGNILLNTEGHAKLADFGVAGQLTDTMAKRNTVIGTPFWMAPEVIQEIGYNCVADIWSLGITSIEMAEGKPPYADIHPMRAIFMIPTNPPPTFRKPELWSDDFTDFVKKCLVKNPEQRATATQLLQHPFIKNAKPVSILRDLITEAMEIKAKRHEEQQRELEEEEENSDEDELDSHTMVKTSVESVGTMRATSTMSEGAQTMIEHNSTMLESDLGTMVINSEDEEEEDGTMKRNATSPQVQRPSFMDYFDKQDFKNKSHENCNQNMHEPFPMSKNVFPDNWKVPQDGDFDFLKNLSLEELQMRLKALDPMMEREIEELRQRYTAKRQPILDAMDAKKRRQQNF
UniProt Q13043: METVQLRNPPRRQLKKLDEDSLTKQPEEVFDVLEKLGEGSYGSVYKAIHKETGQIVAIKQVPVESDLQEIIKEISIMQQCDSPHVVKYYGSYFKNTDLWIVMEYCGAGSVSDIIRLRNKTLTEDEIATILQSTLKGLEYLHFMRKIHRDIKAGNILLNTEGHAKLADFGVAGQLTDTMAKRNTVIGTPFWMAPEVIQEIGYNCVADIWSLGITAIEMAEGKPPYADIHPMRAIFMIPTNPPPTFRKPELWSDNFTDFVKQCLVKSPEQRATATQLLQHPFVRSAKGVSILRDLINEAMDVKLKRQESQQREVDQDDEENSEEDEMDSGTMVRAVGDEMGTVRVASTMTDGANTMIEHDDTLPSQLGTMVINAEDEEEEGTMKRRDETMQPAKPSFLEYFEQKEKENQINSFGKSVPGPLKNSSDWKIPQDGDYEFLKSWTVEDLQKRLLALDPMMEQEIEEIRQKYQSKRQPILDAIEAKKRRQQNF
UniProt P30291: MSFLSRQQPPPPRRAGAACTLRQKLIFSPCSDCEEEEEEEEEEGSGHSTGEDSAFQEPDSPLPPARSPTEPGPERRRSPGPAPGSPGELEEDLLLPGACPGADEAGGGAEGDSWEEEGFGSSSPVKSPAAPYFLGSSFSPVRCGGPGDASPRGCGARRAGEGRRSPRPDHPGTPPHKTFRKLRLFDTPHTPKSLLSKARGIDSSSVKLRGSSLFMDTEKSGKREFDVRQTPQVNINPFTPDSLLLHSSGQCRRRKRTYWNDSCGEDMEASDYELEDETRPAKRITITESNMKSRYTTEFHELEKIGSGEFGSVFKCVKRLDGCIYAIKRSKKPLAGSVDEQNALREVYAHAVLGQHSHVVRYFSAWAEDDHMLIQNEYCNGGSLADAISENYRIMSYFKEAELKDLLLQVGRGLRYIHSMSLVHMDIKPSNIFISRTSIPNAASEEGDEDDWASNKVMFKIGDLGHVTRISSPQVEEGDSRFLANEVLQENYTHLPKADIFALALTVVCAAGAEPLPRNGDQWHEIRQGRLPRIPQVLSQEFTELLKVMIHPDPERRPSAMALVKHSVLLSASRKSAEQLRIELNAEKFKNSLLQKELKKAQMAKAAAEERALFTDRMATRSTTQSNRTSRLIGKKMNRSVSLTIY

How the values were obtained:
Experiment in all cases: radiometric filter-binding kinase assay, Kinase HotSpot
Settings in all cases: compound 0.5 µM; ATP 10 µM
[1] = target: ACVR1B (human) (UniProt P36896)
[2] = target: AKT3 (human) (UniProt Q9Y243)
[3] = target: CAMK1 (human) (UniProt Q14012)
[4] = target: CAMK1D (human) (UniProt Q8IU85)
[5] = target: CHEK2 (human) (UniProt O96017)
[6] = target: CHUK (human) (UniProt O15111)
[7] = target: CLK4 (human) (UniProt Q9HAZ1)
[8] = target: CSNK2A2 (human) (UniProt P19784)
[9] = target: DAPK1 (human) (UniProt P53355)
[10] = target: EPHA2 (human) (UniProt P29317)
[11] = target: EPHA4 (human) (UniProt P54764)
[12] = target: ERBB4 (human) (UniProt Q15303)
[13] = target: FRK (human) (UniProt P42685)
[14] = target: GRK4 (human) (UniProt P32298)
[15] = target: GRK5 (human) (UniProt P34947)
[16] = target: GSG2 (human) (UniProt Q8TF76)
[17] = target: GSK3A (human) (UniProt P49840)
[18] = target: IKBKE (human) (UniProt Q14164)
[19] = target: ITK (human) (UniProt Q08881)
[20] = target: KIT (human) (UniProt P10721)
[21] = target: MAP4K2 (human) (UniProt Q12851)
[22] = target: MAP4K5 (human) (UniProt Q9Y4K4)
[23] = target: MAPK3 (human) (UniProt P27361)
[24] = target: MAPK8 (human) (UniProt P45983)
[25] = target: MAPKAPK5 (human) (UniProt Q8IW41)
[26] = target: MUSK (human) (UniProt O15146)
[27] = target: MYLK (human) (UniProt Q15746)
[28] = target: NEK4 (human) (UniProt P51957)
[29] = target: PAK6 (human) (UniProt Q9NQU5)
[30] = target: PASK (human) (UniProt Q96RG2)
[31] = target: PBK (human) (UniProt Q96KB5)
[32] = target: PKN1 (human) (UniProt Q16512)
[33] = target: PLK2 (human) (UniProt Q9NYY3)
[34] = target: PRKCA (human) (UniProt P17252)
[35] = target: PRKCB1 (human) (UniProt P05771)
[36] = target: PRKCG (human) (UniProt P05129)
[37] = target: RET (human) (UniProt P07949)
[38] = target: STK3 (human) (UniProt Q13188)
[39] = target: STK4 (human) (UniProt Q13043)
[40] = target: TEC (human) (UniProt P42680)
[41] = target: TEK (human) (UniProt Q02763)
[42] = target: TXK (human) (UniProt P42681)
[43] = target: WEE1 (human) (UniProt P30291)

**Q.** Which residual activity [1] does the source give for `CO[C@H]1[C@@H](OC)C[C@H](C)[C@@H](OC)C2=CC(=O)C=C(NC(=O)/C(C)=C\C=C/[C@H](OC)[C@@H](OC(N)=O)/C(C)=C\[C@@H]1C)C2=O` here?
**A.** Its residual activity is 99.5%.

**Q.** And the residual activity [2]?
**A.** Its residual activity is 94.1%.

**Q.** What about the residual activity [3] of the same molecule?
**A.** Its residual activity is 91.3%.

**Q.** And the residual activity [4]?
**A.** Its residual activity is 92.8%.

**Q.** What about the residual activity [5] of the same molecule?
**A.** The residual activity was 101%.

**Q.** What about the residual activity [6] of the same molecule?
**A.** The residual activity was 99.9%.

**Q.** And the residual activity [7]?
**A.** Its residual activity is 86.9%.

**Q.** And the residual activity [8]?
**A.** The residual activity was 90.8%.

**Q.** What about the residual activity [9] of the same molecule?
**A.** Its residual activity is 101%.

**Q.** What about the residual activity [10] of the same molecule?
**A.** The residual activity was 107%.

**Q.** What about the residual activity [11] of the same molecule?
**A.** The residual activity was 106%.

**Q.** And the residual activity [12]?
**A.** Its residual activity is 99.9%.

**Q.** And the residual activity [13]?
**A.** Its residual activity is 96.7%.

**Q.** And the residual activity [14]?
**A.** The residual activity was 103%.

**Q.** And the residual activity [15]?
**A.** Its residual activity is 105%.

**Q.** And the residual activity [16]?
**A.** The residual activity was 91.9%.

**Q.** And the residual activity [17]?
**A.** Its residual activity is 113%.

**Q.** And the residual activity [18]?
**A.** The residual activity was 103%.

**Q.** What about the residual activity [19] of the same molecule?
**A.** The residual activity was 102%.

**Q.** And the residual activity [20]?
**A.** The residual activity was 106%.

**Q.** What about the residual activity [21] of the same molecule?
**A.** Its residual activity is 120%.

**Q.** And the residual activity [22]?
**A.** The residual activity was 109%.

**Q.** And the residual activity [23]?
**A.** The residual activity was 90.6%.

**Q.** What about the residual activity [24] of the same molecule?
**A.** Its residual activity is 103%.

**Q.** And the residual activity [25]?
**A.** Its residual activity is 95.9%.

**Q.** What about the residual activity [26] of the same molecule?
**A.** Its residual activity is 95.2%.

**Q.** And the residual activity [27]?
**A.** The residual activity was 97.6%.

**Q.** And the residual activity [28]?
**A.** Its residual activity is 95.4%.

**Q.** What about the residual activity [29] of the same molecule?
**A.** The residual activity was 96.3%.

**Q.** What about the residual activity [30] of the same molecule?
**A.** The residual activity was 95.1%.

**Q.** And the residual activity [31]?
**A.** Its residual activity is 101%.

**Q.** What about the residual activity [32] of the same molecule?
**A.** The residual activity was 104%.

**Q.** And the residual activity [33]?
**A.** Its residual activity is 102%.

**Q.** What about the residual activity [34] of the same molecule?
**A.** The residual activity was 123%.

**Q.** And the residual activity [35]?
**A.** Its residual activity is 92.5%.

**Q.** And the residual activity [36]?
**A.** Its residual activity is 90.4%.

**Q.** And the residual activity [37]?
**A.** The residual activity was 95.7%.

**Q.** What about the residual activity [38] of the same molecule?
**A.** The residual activity was 95%.

**Q.** And the residual activity [39]?
**A.** The residual activity was 95.7%.

**Q.** What about the residual activity [40] of the same molecule?
**A.** Its residual activity is 147%.

**Q.** What about the residual activity [41] of the same molecule?
**A.** The residual activity was 96.3%.

**Q.** What about the residual activity [42] of the same molecule?
**A.** The residual activity was 98.1%.

**Q.** And the residual activity [43]?
**A.** The residual activity was 102%.
